Experiments:
[1] = biological target: Kappa-type opioid receptor (Homo sapiens, UniProt P41145); experiment: Agonistic activity against kappa opioid receptor in Chinese hamster ovary membranes; format: functional, cell membranes, Cricetulus griseus
Mu-type opioid receptor = Mu-type opioid receptor (Homo sapiens, UniProt P35372)

By UniProt entry, the sequences of proteins in these tests, tags left out. Where a name states a change or a piece, a line headed by the entry shows the natural chain unless it says otherwise.
UniProt P41145: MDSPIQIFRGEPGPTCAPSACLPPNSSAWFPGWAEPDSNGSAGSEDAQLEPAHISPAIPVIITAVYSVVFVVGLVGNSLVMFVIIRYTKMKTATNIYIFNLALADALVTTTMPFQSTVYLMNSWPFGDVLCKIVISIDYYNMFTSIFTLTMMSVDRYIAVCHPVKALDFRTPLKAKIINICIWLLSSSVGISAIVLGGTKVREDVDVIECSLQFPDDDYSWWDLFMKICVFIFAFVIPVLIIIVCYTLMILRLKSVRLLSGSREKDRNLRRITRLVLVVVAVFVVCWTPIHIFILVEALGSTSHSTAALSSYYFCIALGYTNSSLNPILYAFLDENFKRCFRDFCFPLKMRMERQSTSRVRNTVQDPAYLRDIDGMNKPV
UniProt P35372, whole entry: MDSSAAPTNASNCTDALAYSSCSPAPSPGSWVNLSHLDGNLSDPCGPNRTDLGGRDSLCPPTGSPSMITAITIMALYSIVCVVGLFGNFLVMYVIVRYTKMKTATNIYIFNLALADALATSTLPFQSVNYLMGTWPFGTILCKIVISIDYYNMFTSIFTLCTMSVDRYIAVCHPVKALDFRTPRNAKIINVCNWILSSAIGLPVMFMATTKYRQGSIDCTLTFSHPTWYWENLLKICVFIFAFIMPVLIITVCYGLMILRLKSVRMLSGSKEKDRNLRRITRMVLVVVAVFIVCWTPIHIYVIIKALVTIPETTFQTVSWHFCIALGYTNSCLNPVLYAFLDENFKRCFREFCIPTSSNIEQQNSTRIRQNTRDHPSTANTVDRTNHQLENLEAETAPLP

| SMILES | EC50 [1] [nM] | EC50 (Mu-type opioid receptor) [nM] |
| --- | --- | --- |
| Oc1ccc2c(c1)[C@@]13CCCC[C@H]1[C@@H](C2)N(CC1CC1)CC3 [CYCLORPHAN] | 0.2 | – |
| Oc1ccc2c(c1)[C@@]13CCCC[C@H]1[C@@H](C2)N(CC1CCC1)CC3 [BUTORPHAN] | – | 1.6 |

Source: ChEMBL document CHEMBL1149134, “2-aminothiazole-derived opioids. Bioisosteric replacement of phenols” (J Med Chem, 2004)
